Reference: US10227346B2, “Methyl- and trifluoromethyl-substituted pyrrolopyridine modulators of RORC2 and methods of use therof” (Pfizer Inc., priority 2014, dated 2019)

Test system: IL-17 production from human Th17 cells;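 also: purified human CD4+ T cells activated with anti-CD3 plus anti-CD28 and a Th17-inducing cytokine cocktail, with compound at serial concentrations versus no compound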
Assay: IL-17 production from human Th17 cells;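 also: purified human CD4+ T cells activated with anti-CD3 plus anti-CD28 and a Th17-inducing cytokine cocktail, with compound at serial concentrations versus no compound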
Assay type: cell-based
Details: CD4+ T, 144 h

| SMILES | IC50 |
| --- | --- |
| Cc1c(NC(=O)c2cccc(C#N)c2)cnc2c1c([C@@H]1CCN(C(=O)[C@@H](C)C(F)(F)F)C[C@@H]1C)cn2C [Example 88, 3-cyano-N-(1,4-dimethyl-3-((3R,4R)-3-methyl-1-((R)-3,3,3-trifluoro-2-methylpropanoyl)piperidin-4-yl)-1H-pyrrolo[2,3-b]pyridin-5-yl)benzamide] | 19 nM |
| COc1ccc(C(=O)Nc2cnc3c(c([C@@H]4CCN(C(=O)[C@H](C)C(F)(F)F)[C@@H](C)C4)cn3C)c2C)cc1C#N [Example 93, 3-cyano-N-(1,4-dimethyl-3-((2S,4R)-2-methyl-1-((S)-3,3,3-trifluoro-2-methylpropanoyl)piperidin-4-yl)-1H-pyrrolo[2,3-b]pyridin-5-yl)-4-methoxybenzamide] | 13.4 nM |
| CC(C)C(=O)N1CC[C@@H](c2cn(C)c3ncc(NC(=O)c4cccc(C#N)c4)c(C(F)(F)F)c23)CC1(C)C [Example 66, (R)-3-cyano-N-(3-(1-isobutyryl-2,2-dimethylpiperidin-4-yl)-1-methyl-4-(trifluoromethyl)-1H-pyrrolo[2,3-b]pyridin-5-yl)benzamide] | 13.4 nM |
| COc1ccc(C(=O)Nc2cnc3c(c([C@@H]4CCN(C(=O)C(C)C)C[C@@H]4C)cn3C)c2C)cc1C#N [Example 112, 3-cyano-N-(3-((3R,4R)-1-isobutyryl-3-methylpiperidin-4-yl)-1,4-dimethyl-1H-pyrrolo[2,3-b]pyridin-5-yl)-4-methoxybenzamide] | 36 nM |
| COc1cc(C#N)cc(C(=O)Nc2cnc3c(c(C4CCN(C(=O)[C@H](C)C(C)(C)C)CC4)cn3C)c2C)c1 [Example 39, (R)-3-cyano-N-(1,4-dimethyl-3-(1-(2,3,3-trimethylbutanoyl)piperidin-4-yl)-1H-pyrrolo[2,3-b]pyridin-5-yl)-5-methoxybenzamide] | 11.2 nM |
| COc1cc(C#N)cc(C(=O)Nc2cnc3c(c(C4CCN(C(=O)C5CCCC5)CC4)cn3C)c2C(F)(F)F)c1 [Example 1, 3-cyano-N-(3-(1-(cyclopentanecarbonyl)piperidin-4-yl)-1-methyl-4-(trifluoromethyl)-1H-pyrrolo[2,3-b]pyridin-5-yl)-5-methoxybenzamide] | 11.8 nM |
| Cn1cc(C2CCN(C(=O)C3CCCCC3)CC2)c2c(C(F)(F)F)c(NC(=O)c3cccc(C#N)c3)cnc21 [Example 19, 3-cyano-N-(3-(1-(cyclohexanecarbonyl)piperidin-4-yl)-1-methyl-4-(trifluoromethyl)-1H-pyrrolo[2,3-b]pyridin-5-yl)benzamide] | 12.6 nM |
| COc1ccc(C(=O)Nc2cnc3c(c(C4CCN(C(=O)[C@@H](C)C(F)(F)F)CC4)cn3C)c2C)cc1C#N (single isomer, unassigned) [Example 44] | 17.1 nM |
| COc1ccc(C(=O)Nc2cnc3c(c([C@@H]4CCN(C(=O)[C@@H](C)C(F)(F)F)[C@@H](C)C4)cn3C)c2C)cc1C#N [Example 94, 3-cyano-N-(1,4-dimethyl-3-((2S,4R)-2-methyl-1-((R)-3,3,3-trifluoro-2-methylpropanoyl)piperidin-4-yl)-1H-pyrrolo[2,3-b]pyridin-5-yl)-4-methoxybenzamide] | 22.8 nM |
| COc1ccc(C(=O)Nc2cnc3c(c(C4CCN(C(=O)[C@H](C)C(C)(C)C)CC4)cn3C)c2C)cc1C#N [Example 38, (R)-3-cyano-N-(1,4-dimethyl-3-(1-(2,3,3-trimethylbutanoyl)piperidin-4-yl)-1H-pyrrolo[2,3-b]pyridin-5-yl)-4-methoxybenzamide] | 11 nM |
| COCCOc1ccc(C(=O)Nc2cnc3c(c([C@@H]4CCN(C(=O)C5CCCC5)C[C@@H]4C)cn3C)c2C)cc1C#N [Example 87, 3-cyano-N-(3-((3R,4R)-1-(cyclopentanecarbonyl)-3-methylpiperidin-4-yl)-1,4-dimethyl-1H-pyrrolo[2,3-b]pyridin-5-yl)-4-(2-methoxyethoxy)benzamide] | 12.6 nM |
| CC(C)CC(=O)N1CCC(c2cn(C)c3ncc(NC(=O)c4cccc(C#N)c4)c(C(F)(F)F)c23)CC1 [Example 15, 3-cyano-N-(1-methyl-3-(1-(3-methylbutanoyl)piperidin-4-yl)-4-(trifluoromethyl)-1H-pyrrolo[2,3-b]pyridin-5-yl)benzamide] | 9.9 nM |
| COc1ccc(C(=O)Nc2cnc3c(c([C@@H]4CCN(C(=O)[C@H](C)C(C)(C)C)C(C)(C)C4)cn3C)c2C)cc1C#N [Example 69, 3-cyano-N-(3-((R)-2,2-dimethyl-1-((R)-2,3,3-trimethylbutanoyl)piperidin-4-yl)-1,4-dimethyl-1H-pyrrolo[2,3-b]pyridin-5-yl)-4-methoxybenzamide] | 11.4 nM |

These reach a lower IC50. Values come first.

| IC50 | SMILES |
| --- | --- |
| 9.3 nM | CC(C)C(=O)N1CC[C@@H](c2cn(C)c3ncc(NC(=O)c4cccc(C#N)c4)c(C(F)(F)F)c23)[C@@H](C)C1 [Example 80, 3-cyano-N-(3-((3R,4R)-1-isobutyryl-3-methylpiperidin-4-yl)-1-methyl-4-(trifluoromethyl)-1H-pyrrolo[2,3-b]pyridin-5-yl)benzamide] |
| 6.4 nM | COCCOc1ccc(C(=O)Nc2cnc3c(c(C4CCN(C(=O)[C@H](C)C(C)(C)C)CC4)cn3C)c2C)cc1C#N [Example 43, (R)-3-cyano-N-(1,4-dimethyl-3-(1-(2,3,3-trimethylbutanoyl)piperidin-4-yl)-1H-pyrrolo[2,3-b]pyridin-5-yl)-4-(2-methoxyethoxy)benzamide] |
| 7.9 nM | COc1ccc(C#N)cc1C(=O)Nc1cnc2c(c(C3CCN(C(=O)[C@H](C)C(C)(C)C)CC3)cn2C)c1C [Example 40, (R)-5-cyano-N-(1,4-dimethyl-3-(1-(2,3,3-trimethylbutanoyl)piperidin-4-yl)-1H-pyrrolo[2,3-b]pyridin-5-yl)-2-methoxybenzamide] |
| 4.8 nM | Cc1c(NC(=O)c2cccc(C#N)c2)cnc2c1c([C@@H]1CCN(C(=O)C(C)C)C(C)(C)C1)cn2C [Example 72, (R)-3-cyano-N-(3-(1-isobutyryl-2,2-dimethylpiperidin-4-yl)-1,4-dimethyl-1H-pyrrolo[2,3-b]pyridin-5-yl)benzamide] |
| 4.8 nM | Cc1c(NC(=O)c2cccc(C#N)c2)cnc2c1c([C@@H]1CCN(C(=O)C3CCCC3)C(C)(C)C1)cn2C [Example 71, (R)-3-cyano-N-(3-(1-(cyclopentanecarbonyl)-2,2-dimethylpiperidin-4-yl)-1,4-dimethyl-1H-pyrrolo[2,3-b]pyridin-5-yl)benzamide] |
| 8.7 nM | Cn1cc(C2CCN(C(=O)CC3CCCC3)CC2)c2c(C(F)(F)F)c(NC(=O)c3cccc(C#N)c3)cnc21 [Example 14, 3-cyano-N-(3-(1-(2-cyclopentylacetyl)piperidin-4-yl)-1-methyl-4-(trifluoromethyl)-1H-pyrrolo[2,3-b]pyridin-5-yl)benzamide] |
| 3.9 nM | COc1ccc(C(=O)Nc2cnc3c(c(C4CCN(C(=O)[C@H](C)C(C)(C)C)CC4)cn3C)c2C(F)(F)F)cc1C#N [Example 30, (R)-3-cyano-4-methoxy-N-(1-methyl-4-(trifluoromethyl)-3-(1-(2,3,3-trimethylbutanoyl)piperidin-4-yl)-1H-pyrrolo[2,3-b]pyridin-5-yl)benzamide] |
| 3.4 nM | C[C@@H](C(=O)N1CCC(c2cn(C)c3ncc(NC(=O)c4cccc(C#N)c4)c(C(F)(F)F)c23)CC1)C(C)(C)C [Example 21, (R)-3-cyano-N-(1-methyl-4-(trifluoromethyl)-3-(1-(2,3,3-trimethylbutanoyl)piperidin-4-yl)-1H-pyrrolo[2,3-b]pyridin-5-yl)benzamide] |
| 6.2 nM | Cc1ccc(C(=O)Nc2cnc3c(c(C4CCN(C(=O)C(C)C)CC4)cn3C)c2C(F)(F)F)cc1C#N [Example 7, 3-cyano-N-(3-(1-isobutyrylpiperidin-4-yl)-1-methyl-4-(trifluoromethyl)-1H-pyrrolo[2,3-b]pyridin-5-yl)-4-methylbenzamide] |
| 5.9 nM | C[C@H](C(=O)N1CCC(c2cn(C)c3ncc(NC(=O)c4cccc(C#N)c4)c(C(F)(F)F)c23)CC1)C(C)(C)C [Example 22, (S)-3-cyano-N-(1-methyl-4-(trifluoromethyl)-3-(1-(2,3,3-trimethylbutanoyl)piperidin-4-yl)-1H-pyrrolo[2,3-b]pyridin-5-yl)benzamide] |
